Source: PubChem BioAssay AID493221 (Johns Hopkins Ion Channel Center, 2011)
The entries are a selection whose mix differs from that of the whole data set. Activity calls are given as the source filed them.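 Rule for the calls: active = choline transporter activity left, mean of duplicates at 10 µM, below buffer-only control mean minus 3 SD; inactive = the rest.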

Chains of the proteins cited; added tags and fusions are not shown. Lines headed by an entry give the natural chain unless they say otherwise; changes in a name come on top.
UniProt Q9GZV3: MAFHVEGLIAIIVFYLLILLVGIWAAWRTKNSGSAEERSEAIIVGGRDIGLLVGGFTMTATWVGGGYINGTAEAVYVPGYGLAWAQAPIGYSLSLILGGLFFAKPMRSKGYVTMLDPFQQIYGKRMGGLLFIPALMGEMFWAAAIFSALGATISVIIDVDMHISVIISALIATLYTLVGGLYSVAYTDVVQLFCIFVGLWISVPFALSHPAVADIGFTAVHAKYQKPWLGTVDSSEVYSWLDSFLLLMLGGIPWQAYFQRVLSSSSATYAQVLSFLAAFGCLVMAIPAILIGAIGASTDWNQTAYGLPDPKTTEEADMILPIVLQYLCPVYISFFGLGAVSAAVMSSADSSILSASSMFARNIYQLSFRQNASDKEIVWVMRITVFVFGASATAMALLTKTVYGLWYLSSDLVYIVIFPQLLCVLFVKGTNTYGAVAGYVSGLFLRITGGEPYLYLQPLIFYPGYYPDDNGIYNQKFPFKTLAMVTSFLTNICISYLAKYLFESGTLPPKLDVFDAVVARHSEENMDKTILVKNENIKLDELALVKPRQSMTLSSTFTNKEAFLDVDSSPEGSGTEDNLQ

target: High affinity choline transporter 1 (Homo sapiens) (UniProt Q9GZV3); experiment: human choline transporter blockers – cell-based, membrane potential dye, duplicate, confirmation (AID 493221); conditions: CHT-expressing cells, at 10 µM, LV-to-AA substituted CHT, HEK293 cells

Question: For `CCc1nc2c(n1)c1c(non1O)c1c2no[n+]1[O-]`, which inhibition is on record?
Answer: The inhibition was active: 28.1%.

Question: For `NC(=O)c1cc([N+](=O)[O-])cc([N+](=O)[O-])c1N`, which inhibition is on record?
Answer: The inhibition was inactive: 0%.
